Conditions: read-out: KD (binding affinity); assay characteristic of the radioligand; rat prostate cytosol

For [^3H] Methyltrienolone (R1881), the Kd was 4 nM.

From patent US6660310B2, “Method to infuse fresh fruits and vegetables with an agent” (American Moxie LLC, priority 2000, dated 2003)
